We go through 77 compounds from PubChem BioAssay AID651560 (Sanford-Burnham Center for Chemical Genomics, 2012).

By UniProt entry, the sequences of proteins in these tests, tags left out. Where a name states a change or a piece, a line headed by the entry shows the natural chain unless it says otherwise.
UniProt P24666: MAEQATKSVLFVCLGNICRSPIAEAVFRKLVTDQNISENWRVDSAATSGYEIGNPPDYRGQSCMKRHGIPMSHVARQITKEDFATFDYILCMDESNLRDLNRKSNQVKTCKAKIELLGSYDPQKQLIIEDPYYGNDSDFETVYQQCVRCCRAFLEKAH

The list shows a part of the results, in another mix than the full data. Calls of active or inactive are those of the source.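 How the source made its calls: active means compounds that cut the enzyme signal by at least half of the control window in the single-dose screen; inactive means the rest.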

This assay concerns the target Low molecular weight phosphotyrosine protein phosphatase (Homo sapiens) (UniProt P24666). The experiment in a line: inhibition of human LMPTP-A enzyme – biochemical, fluorescence intensity, uHTS, primary screen (AID 651560).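 Further: plate controls were DMSO wells with enzyme plus substrate for no effect and substrate without enzyme for full effect.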 As to conditions: recombinant LMPTP-A, OMFP fluorogenic substrate, at 20 µM, active compounds read high. The method, boiled down: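 Test system – LMPTP-A phosphatase enzyme · Quantity – 0.625 nM LMPTP-A final · Reagent – OMFP substrate, 400 µM final · Dosing – one test concentration per compound, 20 µM, with 3% DMSO overall · Timing – 50 min enzyme reaction at room temperature, protected from light · Detection – fluorescence intensity · Controls – substrate-only low control, DMSO enzyme-plus-substrate high control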
In the case of `O=[N+]([O-])c1cc(Oc2ccc([N+](=O)[O-])cc2C(F)(F)F)cc([N+](=O)[O-])c1`, the inhibition (as a rule, the relative decrease from the control value, in per cent) is inactive: 1.09%. The value for `COc1ccc(N/C(=N/P(=O)(N2CCOCC2)N2CCOCC2)N2CCOCC2)cc1` was inactive: -0.448%; that for `Cc1c2c(nc3ccccc13)SC(C(Cl)Cl)C2` (configuration not stated) was inactive: 0.394%; that for `O=C(OC1CN2CCC1CC2)C12CC3CC(CC(C3)C1)C2` (configuration not stated) was inactive: -0.971%. The value for `Cc1cc(=O)[nH]c(N[N+](=O)[O-])n1` was inactive: -2.31%; that for `O=P1(N(CCCl)CCCl)Nc2ccccc2N1` was inactive: -4.92%. The value for `O=P1(N(CCCl)CCCl)OCCCN1CCCl` (configuration not stated) was inactive: -2.77%; that for `COc1ccc2nc(NP(=O)(c3ccccc3)c3ccccc3)sc2c1` was inactive: -0.838%. Consider `COc1cc(I)ccc1[As](=O)(O)O`, for which the inhibition is inactive: -0.203%. The value for `O=C(OC1CN2CCC1CC2)c1cccc([N+](=O)[O-])c1` (configuration not stated) was inactive: -1.29%. The value for `CSc1ccc(Nc2c([N+](=O)[O-])cc([N+](=O)[O-])cc2[N+](=O)[O-])cc1` was inactive: 3.5%; that for `CCOC(=O)c1ccc(NC(=O)C(C)(CCl)SC)cc1` (configuration not stated) was inactive: -2.65%. The value for `CCC(C)N(CC(C)C)C(=S)SC(NC(C)=O)C(Cl)(Cl)Cl` (configuration not stated) was inactive: -0.0562%; that for `COP1(=S)c2c(C)nn(CCC#N)c2N=C(c2ccc(F)cc2)N1C` (configuration not stated) was inactive: -0.961%. As for `COC(=O)C1(C)COP(=O)(N2CCCC2)OC1` (configuration not stated), the inhibition was inactive: -1.71%. The value for `O=C(O)C(=O)c1ccc(N(CCCl)CCCl)cc1` was inactive: 47.2%. The value for `O=C(COc1ccccc1)OC1CN2CCC1CC2` (configuration not stated) was inactive: -0.833%.

As to `O=C(Nc1ccncc1[N+](=O)[O-])c1ccc([N+](=O)[O-])cc1[N+](=O)[O-]`, the inhibition was inactive: -1.46%. Turning to `CCOC(=O)Nc1cccc([As](=O)(O)O)c1`, the inhibition was inactive: -2.23%.

As to `Cc1cc(SC(NC=O)C(Cl)(Cl)Cl)ncn1` (configuration not stated), the inhibition was inactive: 0.0497%. The value for `O=P(Nc1ccccn1)(c1cccc2ccccc12)c1cccc2ccccc12` was inactive: -0.313%.

For the compound `O=[N+]([O-])c1ccc(Nc2ccc(Oc3ccc([N+](=O)[O-])cc3[N+](=O)[O-])cc2)c([N+](=O)[O-])c1`, the inhibition is inactive: 2.3%. The value for `O=C(O)C(O)c1ccc(N(CCCl)CCCl)cc1` (configuration not stated) was inactive: 6.92%; that for `CCOC(=O)Nc1ccc([As](=O)(O)O)c(O)c1` was inactive: -0.408%; that for `CC1CCNP(=O)(N(CCCl)CCCl)O1` (configuration not stated) was inactive: -8.26%. The value for `COP(=O)(OC)N1CC1c1ccccc1` (configuration not stated) was inactive: -1.65%; that for `CCCCOc1ccc(C(=O)NCC2(N3CCCCC3)CCCCC2)cc1OC` was inactive: -1.5%. As to `Cc1cc(SC(NC(=O)c2ccccc2)C(Cl)(Cl)Cl)nc(C(C)C)n1` (configuration not stated), the inhibition was inactive: 2.04%. Take `Cc1ccc(S(=O)(=O)N(CCCN)CCCc2c(C)nc(N)[nH]c2=O)cc1`: the inhibition is inactive: 4.06%. In the case of `O=P1(Nc2ncccn2)COc2ccccc2OC1`, the inhibition was inactive: -2.38%. In the case of `Nc1cccc([As](=O)(O)c2ccccc2)c1`, the inhibition is inactive: -0.489%. The value for `Cc1ccc(OCC(=O)OC2CN3CCC2CC3)cc1` (configuration not stated) was inactive: -1.88%; that for `O=[As](O)(c1cccs1)c1cccs1` was inactive: -2.17%; that for `NS(=O)(=O)c1cccc(NC(=O)COC(=O)C(O)(c2ccccc2)c2ccccc2)c1` was inactive: -0.518%. The value for `O=P1(Nc2ccc(Br)cn2)COc2ccccc2OC1` was inactive: -0.778%. The value for `Cc1nn(-c2ccccc2)c2c1P(=O)(N1CCOCC1)N(C)C(c1ccccc1)=N2` (configuration not stated) was inactive: -1.08%. Turning to `Cc1ccc(C(=O)OC2CN3CCC2CC3)cc1` (configuration not stated), the inhibition is inactive: -2.34%. The value for `CC1CCC(C(C)C)C(OP(=O)(Nc2ccccn2)c2ccccc2)C1` (configuration not stated) was inactive: -0.414%; that for `CN(C)C1(CNC(=O)c2ccc(S(C)(=O)=O)cc2)CCCCC1` was inactive: -0.289%. The value for `O=C(/C=C/c1ccccc1)OC1CN2CCC1CC2` (configuration not stated) was inactive: -1.27%; that for `CCCC1OP(=O)(Nc2ccccc2)OCC1CC` (configuration not stated) was inactive: -0.727%; that for `COc1ccccc1CNC(=O)COC(=O)C(O)(c1ccccc1)c1ccccc1` was inactive: 0.493%. With `CN(C(=O)Cc1ccc(Cl)c(Cl)c1)[C@@H]1CCCC[C@H]1N1CCCC1`, the inhibition is inactive: 0.74%. The value for `CC(C)/C=N\N=C(\N)N[N+](=O)[O-]` was inactive: -1.05%; that for `CC1(CBr)Cn2c(nc3ccccc3c2=O)S1` (configuration not stated) was inactive: 0.564%.

In the case of `CCC1=CC2Cc3nc4ccc(Cl)cc4c(N)c3C(C1)C2` (configuration not stated), the inhibition was inactive: 7.13%. The value for `O=P1(Nc2ccccn2)COc2ccccc2OC1` was inactive: -1.46%.

Turning to `CCOP(=O)(NC(=NC(C)c1ccccc1)NC(C)c1ccccc1)OCC` (configuration not stated), the inhibition is inactive: -0.352%. The value for `CCOP(=O)(Nc1ccc(C)cn1)OCC` was inactive: -2.51%; that for `CN(CCCl)Cc1cc(Cl)c(NC2=NCCN2)c(Cl)c1` was inactive: 1.57%. The value for `Clc1n[nH]nc1-c1nn[nH][15n]1` was inactive: -2.11%; that for `O=P1(N(CCCl)CCCl)NCCC(C(F)(F)F)O1` (configuration not stated) was inactive: -4.67%.

With `CC(C)(C)C(=O)NC(Sc1ncccn1)C(Cl)(Cl)Cl` (configuration not stated), the inhibition was inactive: 1.35%. Take `Cc1ccc(NCCc2c([N+](=O)[O-])cc([N+](=O)[O-])cc2[N+](=O)[O-])cc1`: the inhibition is inactive: 2.39%. As to `Nc1cccc2c([As](=O)(O)O)cccc12`, the inhibition was inactive: 2%. The value for `CCCOP(=S)(Nc1nc(N)cc(=O)[nH]1)OCCC` was inactive: -0.508%; that for `COc1cc(C2NCCC3(OCCO3)C2(C)C)cc(OC)c1OC` (configuration not stated) was inactive: -0.376%. The value for `CCOP(=O)(Nc1cccc2ccccc12)OCC` was inactive: -3.24%; that for `O=C(OC1CN2CCC1CC2)c1ccc(Cl)cc1` (configuration not stated) was inactive: -1.57%. As to `O=[As](O)(O)c1cccnc1`, the inhibition was inactive: -0.283%. The value for `COc1cc(C(=O)NCC2(N3CCOCC3)CCCCC2)cc(Cl)c1OC(C)C` was inactive: 1.91%; that for `CS(=O)(=O)c1ccc(Cl)c(NC(=O)COC(=O)C(O)(c2ccccc2)c2ccccc2)c1` was inactive: 2.75%. The value for `Cc1cccc(OCC(=O)OC2CN3CCC2CC3)c1` (configuration not stated) was inactive: -0.803%; that for `O=[As](O)(c1cccc(O)c1)c1cccc(O)c1` was inactive: -0.477%; that for `NC(=O)Nc1ccc([As](=O)(O)O)cc1` was inactive: 0.0578%. The value for `N#CCCN(C(=O)COC(=O)C(O)(c1ccccc1)c1ccccc1)c1ccc(F)cc1` was inactive: -0.705%; that for `CCOP1(=S)c2c(C)nn(CCC#N)c2N=C(c2ccc(F)cc2)N1C` (configuration not stated) was inactive: -1.25%. On to `CN(C(=O)Cc1ccccc1)[C@@H]1CC[C@]2(CCCO2)C[C@H]1N1CCCC1`, for which the inhibition was inactive: 0.909%. The value for `O=[N+]([O-])c1ccc2c(c1)nnn2O` was inactive: -0.0505%; that for `CN(C)C(=O)c1cc([N+](=O)[O-])cc2c1-c1c(cc([N+](=O)[O-])cc1[N+](=O)[O-])C2=O` was inactive: 0.393%; that for `CN(C(=O)Cc1ccc(Cl)c(Cl)c1)[C@H]1CC[C@@]2(CCCO2)C[C@@H]1N1CCCC1` was inactive: -3.32%. The value for `CCOP1(=S)c2c(C)nn(CCC#N)c2N=C(c2ccccc2F)N1C` (configuration not stated) was inactive: 0.0642%; that for `O=P(Nc1nccs1)(Oc1ccccc1)Oc1ccccc1` was inactive: 2.17%. The value for `O=P(Nc1nccs1)(c1ccccc1)c1nc2ccccc2s1` (configuration not stated) was inactive: -1.53%; that for `CS(=O)(=O)c1cc([N+](=O)[O-])c2no[n+]([O-])c2c1` was inactive: -1.11%; that for `O=C(O)COc1ccc([As](=O)(O)O)cc1[N+](=O)[O-]` was inactive: -2.02%. Take `Nc1ccccc1[As](=O)(O)c1ccccc1`: the inhibition is inactive: 2.34%.
